{"source": "patent US20070043110A1", "about": "“Nontoxic potentiation sensitization of ovarian cancer therapy by supplementary treatment with vitamins” (Summa Health System, priority 2001, published 2007)", "origin": "cited, not measured here", "details": "oral doses of 200 mg/Kg; cited from earlier work"}
{"smiles": "CC1=CC(=O)c2ccccc2C1=O", "note": "[Vitamin K3, 2-Methyl-1,4-Naphthoquinone]", "values": [{"measurement": "mortality", "value": "No mortality"}]}
